# Experimental data taken from patent US20230192847A1.
# pIC50, pKd: −log10 of the molar value.
# What was measured:
# [1] = target: Human TIGIT-His/Flag (human); assay: HTRF, 647-TIGIT vs biotin-CD155
# [2] = target: Cyno TIGIT-Flag/His (cynomolgus); assay: SPR 25C, antibody captured, TIGIT analyte
# [3] = target: Human TIGIT-His/Flag (human); assay: SPR 25C, antibody captured, TIGIT analyte
pIC50 [1],pKd [2],pKd [3],Substance
8.65,7.75,8.63,KY09 (antibody)
8.37,8.58,9.24,KY10 (antibody)
8.64,7.92,8.72,KY11 (antibody)
8.68,7.51,8.15,KY17 (antibody)
8.72,7.85,8.40,KY18 (antibody)
